From US11274103B2, “Compounds for the modulation of MYC activity” (Syros Pharmaceuticals, Inc., priority 2016, dated 2022)

By UniProt entry, the sequences of proteins in these tests, tags left out.
UniProt P01106, whole entry: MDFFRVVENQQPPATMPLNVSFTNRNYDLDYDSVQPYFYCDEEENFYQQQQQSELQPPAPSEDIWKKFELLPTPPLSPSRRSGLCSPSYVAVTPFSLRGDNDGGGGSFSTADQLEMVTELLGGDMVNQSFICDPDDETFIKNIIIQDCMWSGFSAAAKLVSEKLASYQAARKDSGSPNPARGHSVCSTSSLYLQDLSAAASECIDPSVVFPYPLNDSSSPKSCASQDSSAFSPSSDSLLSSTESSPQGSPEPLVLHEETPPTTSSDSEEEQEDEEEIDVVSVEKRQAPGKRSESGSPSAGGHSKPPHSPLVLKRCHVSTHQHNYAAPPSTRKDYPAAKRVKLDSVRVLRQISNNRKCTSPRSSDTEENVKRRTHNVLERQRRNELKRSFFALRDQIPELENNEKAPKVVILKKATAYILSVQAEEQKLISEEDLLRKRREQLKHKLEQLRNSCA

molecular target: c-Myc/Max/Ebox DNA (Homo sapiens, UniProt P01106); assay: c-Myc/Max/Ebox DNA AlphaScreen Assay; conditions: read-out: Myc/Max/DNA Activity; calculated IC50; free c-Myc 20 nM, his6-Max 5 nM, biotinylated Ebox oligo 10 nM; 2 hour incubation
Description: Compounds of the invention were assayed for c-Myc/Max/EBox activity as described in the following protocol. Human his6-c-Myc and his6-Max were used with biotinylated DNA containing a single Ebox sequence (biotin[…] (SEQ ID NO: 1)) purchased from MWG Operon. Free c-Myc was generated from his6-c-Myc through thrombin cleavage of the his6 tag (SEQ ID NO: 2). For 384-well plate assays, 10 μL of a 2× solution of free c-Myc (20 nM final), Ni^2+ coated Acceptor Beads (25 μg/ml final), and biotinylated Ebox oligo (10 nM final) were added to 384-well plates with a Biotek EL406 liquid handler. 50 nL of compounds from stock plates were added by pin transfer using a Janus Workstation (PerkinElmer), allowing the compounds to interact with c-Myc prior to c-Myc binding with Max. In the current assay, DMSO was not allowed to exceed 2% v/v of the assay. 10 μl of 2× master mix containing streptavidin-coated donor beads (25 μg/ml final) and his6-Max (5 nM) were added. AlphaScreen measurements were performed on an Envision plate reader (PerkinElmer) utilizing the manufacturer's protocol.
Both master mixes were made in room temperature assay buffer (50 mM HEPES, 150 mM NaCl, 0.2% w/v BSA, 0.02% w/v Tween20, 40 μg/ml glycogen, 500 μM DTT, pH 8.0, wherein both DTT and glycogen were added fresh). Alpha beads were added to respective master solutions. All subsequent steps were performed in low light conditions. Solution 1: 2× solution of components with final concentrations of c-Myc Ni-coated Acceptor Beads (25 μg/ml), and biotinylated Ebox oligo (10 nM). Solution 2: 2× solution of streptavidin-coated donor beads (25 μg/ml final) and his6-Max 10 μL. Solution 1 was added to 384-well plate (AlphaPlate-384, PerkinElmer) with Biotek EL406 liquid handler and the plates were centrifuged very briefly. 50 nL of compounds from stock plates were added by pin transfer using a Janus Workstation. Solution 2 (10 μL) was added with the liquid handler. Plates were sealed with foil to block light exposure and prevent evaporation. Plates were very briefly centrifuged followed by 2 hour incubation. AlphaScreen measurements were performed on an Envision 2104 utilizing the manufacturer's protocol. Excitation was at 680 nm for donor bead release of singlet oxygen and emission was read with a bandpass filter from 520-620 nm. Glycogen: Roche Diagnostics #10901393001. Plate 1536: Perkin Elmer, 6004350. Plate 384: Perkin Elmer, 6005350. Nickel-His Alpha Beads: 6760619R. The data from this assay are summarized in Table 2 below (Myc/Max/DNA Activity), where “A” represents a calculated IC50 of less than 500 nM; “B” represents a calculated IC50 of between 500 nM and 5 μM; “C” represents a calculated IC50 of between 5 μM and 10 μM; “D” represents a value of greater than 10 μM, and “NT” represents a compound for which an assay result was not obtained.

| pIC50 | Compound |
| --- | --- |
| < 5.00 | CC(C)NCCC(=O)Nc1sc2c(c1-c1nc(C(=O)N3CCN(C)CC3)cs1)CCNC2 |
| < 5.00 | CC(C)NCCC(=O)Nc1sc2c(c1-c1nc(C(=O)N(C)C)cs1)CCNC2 |
| 5.30 to 6.30 | CC(=O)Nc1csc(-c2c(NC(=O)CCNC(C)C)sc3c2CCNC3)n1 |
| < 5.00 | CC(C)NCCC(=O)Nc1sc2c(c1-c1nc(C(=O)N3CCCCC3)cs1)CCNC2 |
| 5.30 to 6.30 | Cc1ncccc1-c1csc(-c2c(NC(=O)CCNC(C)C)sc3c2CCNC3)n1 |

same assay, conditions: read-out: Myc/Max/DNA Activity; calculated IC50; free c-Myc 20 nM, his6-Max 5 nM, biotinylated Ebox oligo 10 nM; 2 hour incubation; tested form: HCl

| pIC50 | Compound |
| --- | --- |
| 5.30 to 6.30 | CC(C)NCCC(=O)Nc1sc2c(c1-c1nc(Br)cs1)CCNC2 |

same assay, conditions: read-out: Myc/Max/DNA Activity; calculated IC50; free c-Myc 20 nM, his6-Max 5 nM, biotinylated Ebox oligo 10 nM; 2 hour incubation; tested form: hydrochloride

| pIC50 | Compound |
| --- | --- |
| < 5.00 | CC(C)NCCC(=O)Nc1sc2c(c1-c1nc(C(=O)N3CCOCC3)cs1)CCNC2 |
| > 6.30 | Cc1ccc(-c2csc(-c3c(NC(=O)CCNC(C)C)sc4c3CCNC4)n2)cn1 |
| 5.00 to 5.30 | CC(C)NCCC(=O)Nc1sc2c(c1-c1nc(C(=O)NC(C)C)cs1)CCNC2 |
| < 5.00 | COCCNC(=O)c1csc(-c2c(NC(=O)CCNC(C)C)sc3c2CCNC3)n1 |

pIC50: −log10 of the molar value.
